Assay results as given in US20150261911A1, “CRYSTAL STRUCTURE” (Heptares Therapeutics Limited, priority 2014, published 2015).

Key:
[1] = target: CRF1R StaR (Homo sapiens, UniProt P34998, F260A/F330A/I277A/K228A/L144A/S160A/S222A/S349A/V120A/W156A/Y309A/Y363A); experiment: Saturation binding of [3H]CP-376395 to HEK293T membranes; settings: read-out: Mean Kd [^3H]CP-376395, mean of three experiments, standard deviation in parentheses, tested as the radiolabelled form
Description: (§1) HEK293T cells were maintained in culture in DMEM supplemented with 10% (v/v) fetal bovine serum (FBS, Sigma-Aldrich) and passaged twice weekly. Cells were transfected with CRF1R constructs using GeneJuice (Merck Millipore) according to manufacturer's instructions and harvested after 48 hours using PBS supplemented with EDTA-free protease inhibitors (Roche). Membranes for use in radioligand binding assays were prepared as previously described (Robertson et al, 2011).
(§2) For saturation binding experiments, membranes isolated from HEK293T cells transiently expressing wild-type CRF1R (15 μg/well), CRF1R StaR (6 μg/well), CRF1R StaR with T4L fusion (20 μg/well), and CRF1R-#105 (20 μg/well) were incubated in buffer (50mMTris-HCl pH 7.5, 150 mM NaCl, 0.1% (w/v) PEI, EDTA-free protease inhibitors) with [^3H]CP-376395 (0-60 nM) in the presence or absence of 30 uM cold CP-376395 in a final volume of 500 μl. Final DMSO concentration in each reaction was 5% (v/v). Membranes were incubated for 18 hours at room temperature before being terminated by rapid filtration through 96-well GF/C UniFilter plates pre-soaked in 0.3% (w/v) PEI, followed by washing with PBS with 0.15% (w/v) CHAPS. Plates were dried, 50 μl Ultima Gold-F added per well and bound ligand measured using a Packard Microbeta counter. Data were analyzed using a global fitted one-site binding hyperbola in GraphPad Prism v5 to generate Kd. For solubilized whole cell ligand binding experiments, HEK293T cells transiently expressing eGFP-tagged wild-type CRF1R or single point mutants were treated as described above for thermostability experiments, without the 30 minute heating step. Specific binding was determined by subtracting untransfected controls. Expression of each construct was quantified by eGFP fluorescence of whole cells measured at Ex/Em of 488/520 nm.

[2] = target: CRF1R StaR with T4L fusion (Homo sapiens, UniProt P34998, C54T/F260A/F330A/I277A/K228A/L144A/S160A/S222L/S349A/V120A/W156A/Y309A/Y363A); experiment: as above; settings: read-out: Mean Kd [^3H]CP-376395, CRF1R StaR T4, mean of three experiments, standard deviation in parentheses, tested as the radiolabelled form
Description: as §1, §2

[3] = tested on: CRF1R-#105; experiment: as above; settings: read-out: Mean Kd [^3H]CP-376395, mean of three experiments, standard deviation in parentheses, tested as the radiolabelled form
Description: as §1, §2

[4] = target: wild-type CRF1R (Homo sapiens, UniProt P34998); experiment: as above; settings: read-out: Mean Kd [^3H]CP-376395, mean of three experiments, standard deviation in parentheses, tested as the radiolabelled form
Description: as §1, §2

[5] = target: CRF1R F203A(3.44) (Homo sapiens, UniProt P34998, F203A); experiment: Solubilised whole cell ligand binding, alanine mutagenesis; settings: mutation F203A(3.44); percentage of wild-type CRF1R total binding, normalized for expression (eGFP); tested as the radiolabelled form
Description: (§3) HEK293T cells transiently transfected with CRF1R constructs were incubated in buffer (50mMTris-HCl pH 7.5, 150mMNaCl, EDTA-free protease inhibitors) with 30 nM [^3H]CP-376395, and 120 nM cold CP-376395 (Tocris) for 18 hours at room temperature. Reactions were transferred to ice and all subsequent steps performed at 4° C. Cells were solubilized in 1% (w/v) n-dodecyl-β-D-maltopyranoside (DDM, Affymetrix) for 1 hour and crude lysates cleared by centrifugation at 16.000×g for 15 minutes. Thermostability of the receptor was measured by incubation at varying temperatures for 30 minutes followed by separation of excess and unbound radioligand by gel filtration. Levels of ligand-bound receptor were then determined using a liquid scintillation counter.
as §2

[6] = target: CRF1R F284A(5.51) (Homo sapiens, UniProt P34998, F284A); experiment: as above; settings: mutation F284A(5.51); percentage of wild-type CRF1R total binding, normalized for expression (eGFP); tested as the radiolabelled form
Description: as §3, §2

[7] = target: CRF1R G324A(6.50) (Homo sapiens, UniProt P34998, G324A); experiment: as above; settings: mutation G324A(6.50); percentage of wild-type CRF1R total binding, normalized for expression (eGFP); tested as the radiolabelled form
Description: as §3, §2

[8] = target: CRF1R I290A(5.57) (Homo sapiens, UniProt P34998, I290A); experiment: as above; settings: mutation I290A(5.57); percentage of wild-type CRF1R total binding, normalized for expression (eGFP); tested as the radiolabelled form
Description: as §3, §2

[9] = target: CRF1R L280A(5.47) (Homo sapiens, UniProt P34998, L280A); experiment: as above; settings: mutation L280A(5.47); percentage of wild-type CRF1R total binding, normalized for expression (eGFP); tested as the radiolabelled form
Description: as §3, §2

[10] = target: CRF1R L287A(5.54) (Homo sapiens, UniProt P34998, L287A); experiment: as above; settings: mutation L287A(5.54); percentage of wild-type CRF1R total binding, normalized for expression (eGFP); tested as the radiolabelled form
Description: as §3, §2

[11] = target: CRF1R L319A(6.45) (Homo sapiens, UniProt P34998, L319A); experiment: as above; settings: mutation L319A(6.45); percentage of wild-type CRF1R total binding, normalized for expression (eGFP); tested as the radiolabelled form
Description: as §3, §2

[12] = target: CRF1R L320A(6.46) (Homo sapiens, UniProt P34998, L320A); experiment: as above; settings: mutation L320A(6.46); percentage of wild-type CRF1R total binding, normalized for expression (eGFP); tested as the radiolabelled form
Description: as §3, §2

[13] = target: CRF1R L323A(6.49) (Homo sapiens, UniProt P34998, L323A); experiment: as above; settings: mutation L323A(6.49); percentage of wild-type CRF1R total binding, normalized for expression (eGFP); tested as the radiolabelled form
Description: as §3, §2

[14] = target: CRF1R M206A(3.47) (Homo sapiens, UniProt P34998, M206A); experiment: as above; settings: mutation M206A(3.47); percentage of wild-type CRF1R total binding, normalized for expression (eGFP); tested as the radiolabelled form
Description: as §3, §2

[15] = target: CRF1R N283A(5.50) (Homo sapiens, UniProt P34998, N283A); experiment: as above; settings: mutation N283A(5.50); percentage of wild-type CRF1R total binding, normalized for expression (eGFP); tested as the radiolabelled form
Description: as §3, §2

[16] = target: CRF1R Q355A(7.49) (Homo sapiens, UniProt P34998, Q355A); experiment: as above; settings: mutation Q355A(7.49); percentage of wild-type CRF1R total binding, normalized for expression (eGFP); tested as the radiolabelled form
Description: as §3, §2

[17] = target: CRF1R T316A(6.42) (Homo sapiens, UniProt P34998, T316A); experiment: as above; settings: mutation T316A(6.42); percentage of wild-type CRF1R total binding, normalized for expression (eGFP); tested as the radiolabelled form
Description: as §3, §2

[18] = target: CRF1R V279A(5.46) (Homo sapiens, UniProt P34998, V279A); experiment: as above; settings: mutation V279A(5.46); percentage of wild-type CRF1R total binding, normalized for expression (eGFP); tested as the radiolabelled form
Description: as §3, §2

[19] = target: CRF1R Y327A(6.53) (Homo sapiens, UniProt P34998, Y327A); experiment: as above; settings: mutation Y327A(6.53); percentage of wild-type CRF1R total binding, normalized for expression (eGFP); tested as the radiolabelled form
Description: as §3, §2

## CCC(CC)Nc1cc(C)nc(Oc2c(C)cc(C)cc2C)c1C [CP-376395]
[1]
  Kd: 1.5 nM
[2]
  Kd: 6.7 nM
[3]
  Kd: 5 nM
[4]
  Kd: 7.5 nM
[5]
  Normalised % wt [^3H]CP-376395 binding: 1%
[6]
  Normalised % wt [^3H]CP-376395 binding: 60%
[7]
  Normalised % wt [^3H]CP-376395 binding: 41%
[8]
  Normalised % wt [^3H]CP-376395 binding: 5%
[9]
  Normalised % wt [^3H]CP-376395 binding: 1%
[10]
  Normalised % wt [^3H]CP-376395 binding: 5%
[11]
  Normalised % wt [^3H]CP-376395 binding: 120%
[12]
  Normalised % wt [^3H]CP-376395 binding: 33%
[13]
  Normalised % wt [^3H]CP-376395 binding: 26%
[14]
  Normalised % wt [^3H]CP-376395 binding: 8%
[15]
  Normalised % wt [^3H]CP-376395 binding: 0%
[16]
  Normalised % wt [^3H]CP-376395 binding: 101%
[17]
  Normalised % wt [^3H]CP-376395 binding: 47%
[18]
  Normalised % wt [^3H]CP-376395 binding: 18%
[19]
  Normalised % wt [^3H]CP-376395 binding: 8%
